Experimental data reported in patent US7635703B2, “Imidazole substituted pyrazole kinase inhibitors” (Janssen Pharmaceutica N.V., priority 2006, dated 2009).
pIC50: −log10 of the molar value.

Amino acid sequences for entries named in this document (tags omitted). Residues count along the entry.
UniProt P04626, 679-1255: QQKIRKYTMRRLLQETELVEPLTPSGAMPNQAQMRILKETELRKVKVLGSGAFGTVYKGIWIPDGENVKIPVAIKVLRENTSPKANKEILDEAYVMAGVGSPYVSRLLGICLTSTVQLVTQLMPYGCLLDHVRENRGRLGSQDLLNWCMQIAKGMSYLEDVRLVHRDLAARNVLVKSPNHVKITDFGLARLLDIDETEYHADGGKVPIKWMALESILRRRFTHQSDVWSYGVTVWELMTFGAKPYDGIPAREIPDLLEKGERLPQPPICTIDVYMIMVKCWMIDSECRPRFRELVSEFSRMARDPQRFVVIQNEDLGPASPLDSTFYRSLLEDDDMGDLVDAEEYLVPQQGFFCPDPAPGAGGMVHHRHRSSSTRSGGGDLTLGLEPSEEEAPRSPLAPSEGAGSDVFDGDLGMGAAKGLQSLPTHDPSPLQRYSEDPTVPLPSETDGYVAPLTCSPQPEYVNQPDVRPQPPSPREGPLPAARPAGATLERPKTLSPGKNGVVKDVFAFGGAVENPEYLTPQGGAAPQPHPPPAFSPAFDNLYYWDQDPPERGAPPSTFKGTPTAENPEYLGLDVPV

Molecular target: T1, HER2 (GST/HIS6 fusion, amino acids 679 to 1255 of HER-2) (Homo sapiens, UniProt P04626)
T1 construct: GST (Glutathione-S-Transferase) (N); HIS6 (N); thrombin cleavage site (N); purchased Proqinase, Freiburg, Germany
Assay: HER2 screening assay (33P-ATP FlashPlate)
Type: biochemical
Conditions: 10 μM ATP, 1 hr at 30° C.
Method: A kinase reaction mixture was prepared containing 50 mM Tris-HCl pH=8, 10 mM MgCl2, 0.1 mM […], 1 mM DTT, 10 μM ATP, 0.025 μM biotinylated histone-H1 peptide substrate and 0.2 μCuries per well ^33P-γ-ATP (2000-3000 Ci/mmol). 70 μL of the kinase reaction mixture was dispensed into the well of a streptavidin coated FlashPlate™ (Cat. # SMP103, NEN, Boston, Mass.).
Test compound stock in 100% DMSO (1 μL) was added to the wells resulting in a final concentration of 1% DMSO in the reaction with a 100 μL final reaction volume. Each enzyme was diluted in 50 mM Tris-HCl pH=8.0, 0.1% BSA and 30 μL was added to each well to initiate the reaction. The reaction was incubated for one hour at 30° C. At the end of the 1 hr incubation, the reaction was terminated by aspirating the mixture from the plate and washing the wells twice with PBS containing 100 mM EDTA. The biotinylated peptide substrate became immobilized on the Flashplate™ and the incorporation of ^33P-γ-ATP was measured by reading the plate on a scintillation counter. Inhibition of the enzymatic activity was measured by observing a reduced amount of ^33P-γ-ATP incorporated into the immobilized peptide. […]
A maximum and minimum signal for the assay was determined on each plate. The percent inhibition of a test compound was calculated according to the formula: […]

FC(F)(F)c1c[nH]c(-c2n[nH]cc2C=Cc2cncc3ccccc23)n1 [Cpd 4, 4-{2-[3-(4-trifluoromethyl-1H-imidazol-2-yl)-1H-pyrazol-4-yl]-vinyl}-isoquinoline]
pIC50: 4.49
